# System: human red blood cells (hRBC)
# Experiment: Hemolytic assay
# Type: cell-based
# Conditions: 4% hRBC in PBS pH 7.2, 1.5 h, 37 °C, A405
# Protocol: Hemolytic activity of Lc-def was studied using 96-well microplates. Fresh human red blood cells (hRBC) were washed three times with ice-cold PBS, pH 7.2. Serial two-fold dilutions of Lc-def and membrane-active peptide melittin from the venom of honeybees as positive control (final concentrations from 0.1 to 100 μM) were then added to hRBC in PBS (final concentration of 4% (v/v)). The suspension was incubated for 1.5 h at 37 °C. After, intact hRBC sedimentation aliquots of the supernatants containing released hemoglobin were transferred to 96-well microplates, and the absorbance at 405 nm was measured. hRBC in PBS or 0.1% Triton X-100 were employed as negative (control0) and positive (control100) controls, respectively. The percentage of hemolysis was calculated as: hemolysis(%) = ((Asample − Acontrol0)/(Acontrol100 − Acontrol0)) × 100%. Experiment was carried out twice in triplicate using the same blood.
smiles,measurement,value
"CC[C@H](C)[C@H](NC(=O)CN)C(=O)NCC(=O)N[C@@H](C)C(=O)N[C@H](C(=O)N[C@@H](CC(C)C)C(=O)N[C@@H](CCCCN)C(=O)N[C@H](C(=O)N[C@@H](CC(C)C)C(=O)N[C@H](C(=O)N[C@H](C(=O)NCC(=O)N[C@@H](CC(C)C)C(=O)N1CCC[C@H]1C(=O)N[C@@H](C)C(=O)N[C@@H](CC(C)C)C(=O)N[C@H](C(=O)N[C@@H](CO)C(=O)N[C@@H](Cc1c[nH]c2ccccc12)C(=O)N[C@H](C(=O)N[C@@H](CCCCN)C(=O)N[C@@H](CCCNC(=N)N)C(=O)N[C@@H](CCCCN)C(=O)N[C@@H](CCCNC(=N)N)C(=O)N[C@@H](CCC(N)=O)C(=O)N[C@@H](CCC(N)=O)C(N)=O)[C@@H](C)CC)[C@@H](C)CC)[C@@H](C)O)[C@@H](C)O)C(C)C)C(C)C [melittin, reference compound]",concentration causing 50% hemolysis,1600 nM
